From patent US8685958B2, “Therapeutic agents” (AstraZeneca AB, priority 2011, dated 2014)

By UniProt entry, the sequences of proteins in these tests, tags left out. Where a name states a change or a piece, a line headed by the entry shows the natural chain unless it says otherwise.
UniProt Q99705: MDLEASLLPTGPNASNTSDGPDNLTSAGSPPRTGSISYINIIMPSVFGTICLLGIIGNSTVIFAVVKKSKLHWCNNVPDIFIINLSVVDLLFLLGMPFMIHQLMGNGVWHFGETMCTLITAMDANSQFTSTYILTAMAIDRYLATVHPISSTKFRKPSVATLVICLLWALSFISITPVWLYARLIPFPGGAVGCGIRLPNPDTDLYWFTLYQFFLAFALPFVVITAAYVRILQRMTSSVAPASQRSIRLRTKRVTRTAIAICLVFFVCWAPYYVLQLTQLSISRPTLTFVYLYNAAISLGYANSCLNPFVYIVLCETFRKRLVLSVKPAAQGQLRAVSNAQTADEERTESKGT

Target: Melanin Concentrating Hormone Receptor 1 (MCHR1) (Homo sapiens (Human), UniProt Q99705)
Assay: MCHR1 receptor activation assay (GTPγ35S)
Type: biochemical
Text: MCHR1 Receptor Activation Assay:
Melanin Concentrating Hormone Receptor 1 (MCHR1) is a G-protein coupled receptor that interacts with heterotrimeric G proteins containing a Gαi/o subunit. Binding of MCH to MCHR1 results in the exchange of GDP for GTP on the Gαi/o proteins associated with the activated receptor. This activation can be quantified by measuring the amount of a GTP analog, GTPγ^35S, bound to the membrane-associated receptor. GTPγ^35S is not hydrolyzed by the intrinsic GTPase activity of a G-protein but instead forms a stable complex. Activation of MCH1 receptors may thus be quantified by measuring the amount of GTPγ^35S bound to membranes prepared from cells expressing such receptors. Membranes may be isolated by filtration or may be bound on SPA beads (Amersham). Bound GTPγ^35S may then be quantified by determining the amount of ^35S present. Inhibition of MCH binding by a competing ligand may thus be assessed by a decrease in the amount of GTPγ^35S bound to membranes in the presence of such a competing ligand.

COc1ccc(-c2nnc(C(=O)N3CC(Oc4ccc(CN5CCC6(CCOC6)C5)cc4)C3)o2)cc1 (stereo not shown) [Example 1, (3-(4-(2-oxa-7-azaspiro[4.4]nonan-7-ylmethyl)phenoxy)azetidin-1-yl)(5-(4-methoxyphenyl)-1,3,4-oxadiazol-2-yl)methanone]
IC50: 18 nM
